Shown are actives, neighbours in structure and some others; about 2.2% of the full set was active somewhere.
A549 viability = A549 cytotoxicity, counter-screen for Nrf2 inhibitors; A549 ARE-Fluc cells, CellTiter-Fluor viability, 18-24 h; Potency, µM (titrated, usually from 46 µM), for the others: top-dose activity change, negative = cytotoxicity, usual class: inhibitors; hit rate 0.16% among 390,000; also: potency is read from the fitted curve at half-maximal effect; % is scaled to controls: 0 for no effect and ±100 for the full control effect
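A549 ARE_Fluc cells in 5% FBS OPTI-MEM were exposed to compounds in concentration-response for 18-24 h at 37 deg C. Viability was read by CellTiter-Fluor fluorescence (Ex 405/Em 525) after 30 min, before the luciferase read.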
B2AR arrestin = agonists driving beta-arrestin recruitment to human beta2-adrenergic receptor; beta-arrestin recruitment to beta2AR, cell-based reporter; Potency, µM (series often up to 46.1 µM), for the others: at the highest dose activation, usual class: activators; hit rate 0.02% among 330,000; AID 492947;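 also: potency is read from the fitted curve at half-maximal effect; 0% = DMSO controls and full agonism = EC100 isoproterenol or metaproterenol; nearly all actives have a fitted effect of over 65% in size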
Nrf2 inh = blocks Nrf2 signaling; A549 ARE-Fluc reporter, luciferase luminescence, 18-24 h; hit rate 2.1% among 360,000; AID 504444; Potency, µM (series often up to 46 µM), for the others: at the highest dose activity change, negative = inhibition, usual class: inhibitors; also: potency is read from the fitted curve at half-maximal effect; % is scaled to controls: 0 for no effect and ±100 for the full control effect; nearly all actives have a fitted effect of over 60% in size
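Reporter: ARE-Fluc in A549. Exposure: 18-24 h, 37 °C, 5% CO2, 5% FBS OPTI-MEM. Readouts: fluorescent cytotoxicity (CellTiter-Fluor), then luminescent Nrf2 signal after BugLite.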
Nrf2 activator = activators of Nrf2 (ARE) signaling; AREc32 ARE-luciferase reporter (MCF7-derived line), luminescence, 24 h; Potency, µM (doses to about 46.1 µM), without a hit: top-dose activation, actives largely listed as activators; hit rate 0.31% among 410,000; also: potency is read from the fitted curve at half-maximal effect; % of control where 0% means no effect; nearly all actives have a fitted effect of over 65% in size
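Cells of the AREc32 ARE-luciferase line are plated in OPTI-MEM containing 5% FBS and left overnight at 37 deg C. Compounds are pinned in, incubation continues 24 hr, and firefly luciferase signal is then measured.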
miR-21 FLuc = miR-21 reporter, rising signal; HeLa miR-21 FLuc reporter, luciferase, 48 h; Potency, µM (titrated, usually from 38.3 µM), without a hit: top-dose reporter change, positive = more light; AID 2288; 340,000 tested, under 10 active; active = well fitted rising curve with a large enough effect; inconclusive = small, poorly fitted or top-dose-only effect; inactive = no such curve, though single readings can be large or run the other way;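 further: % of control where 0% means no effect; miR-21 action dims this reporter so a rising signal means less miR-21 action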
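HeLa cells stably expressing CMV-driven firefly luciferase with a downstream miR-21 binding sequence, endogenously expressing miR-21, were treated with titrations (up to about 40uM final) for 48 hours at 37 degree Celsius. Luciferase luminescence was read after lysis.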
Active calls of the source: *; ? = inconclusive; · = no result. Unless noted, calls follow the shape of the dose curve; as a rule, active = well fitted curve in the direction sought with a large enough effect; inconclusive = small, poorly fitted or top-dose-only effect, or another doubt; inactive = no such curve, though single readings can be large; an effect the other way counts as inactive or inconclusive.

| No. | Compound | A549 viability | B2AR arrestin | Nrf2 inh | Nrf2 activator | miR-21 FLuc |
| --- | --- | --- | --- | --- | --- | --- |
| 1 | O=C(NC1CCN(Cc2ccccc2)CC1)c1cccc(S(=O)(=O)Nc2ccc(SC(F)F)cc2)c1 | ? | 0% | 16µM* | 0% | · |
| 2 | O=C(NC1CCN(Cc2ccccc2)CC1)c1cccc(NS(=O)(=O)c2ccc(Br)cc2)c1 | -13% | · | 13% | 1% | · |
| 3 | Cc1ccc(S(=O)(=O)Nc2cccc(C(=O)NC3CCN(Cc4ccccc4)CC3)c2)cc1F | ? | 5% | 10µM* | 3% | · |
| 4 | COC(=O)C1=C(C)N(Cc2ccccc2)C(=S)N[C@H]1CCc1ccccc1 | · | -1% | · | · | 5% |
| 5 | CC(C)N(C(=O)N1CCN(c2ccnc3cc(Cl)ccc23)CC1)C(C)C | -4% | -1% | 9.2µM* | 3% | ? |
| 6 | O=S(=O)(c1ccc(Br)s1)N1CCN(c2ccnc3cc(Cl)ccc23)CC1 | -6% | 0% | 21µM* | 1% | 5% |
| 7 | O=C(c1ccc(Cl)cc1)N1CCN(c2ccnc3cc(Cl)ccc23)CC1 | ? | 0% | 21µM* | 3% | 15% |
| 8 | CCC(=O)N1CCN(c2ccnc3cc(Cl)ccc23)CC1 | 0% | -1% | ? | 0% | 17% |
| 9 | COc1ccc(NC(=O)N2CCc3c([nH]c4ccc(OC)cc34)C2c2ccc(OC)cc2)cc1 (centres undefined) | -2% | · | 133% | 3% | 17% |
| 10 | CCSc1cc(C)nc2c(-c3ccccc3)cnn12 | 10% | -1% | ? | 16µM* | -82% |
| 11 | Cc1nc(SCC(=O)c2cc3ccccc3oc2=O)c(C#N)c(-c2ccccc2)c1C(=O)Nc1ccccc1 | -13% | 0% | 23µM* | 0% | -5% |
| 12 | Cc1ccc(Cl)cc1-n1ncc2c(N3CCN(Cc4ccccc4)CC3)ncnc21 | ? | · | · | 0% | ? |
| 13 | Cc1ccc(CNC(=O)c2ccc3c(=O)c(O)c(-c4ccc(C)cc4)[nH]c3c2)cc1 | ? | -1% | 21µM* | 7% | ? |
| 14 | Cc1cnc2c3c(cc(Cl)c2c1)-c1ccccc1S(=O)(=O)N3 | 16µM* | · | 6.5µM* | · | · |
| 15 | O=S1(=O)Nc2c(ccc3cccnc23)-c2ccccc21 | ? | ? | ? | 7.1µM* | ? |
| 16 | CCOc1ccc(N(C(=O)c2ccc(Cl)cc2)S(=O)(=O)c2ccc3c(c2)n(C)c(=O)n3C)cc1 | 1% | · | 18% | 0% | 5% |
| 17 | COc1ccccc1CNC(=O)c1ccc(N2CCCC2)c(NC(=O)NCc2ccc(F)cc2)c1 | 1% | · | · | 2% | -15% |
| 18 | Cc1cc(C)c2oc(-c3cccc(NC(=O)c4ccc(-c5cccc([N+](=O)[O-])c5)o4)c3)nc2c1 | -6% | · | 8% | 1% | -13% |
| 19 | CCC(=O)NC(c1cccc(C)c1)c1cc(Cl)c2cccnc2c1O (centres undefined) | -10% | · | 6% | · | · |
| 20 | O=C(/C=C/c1ccc([N+](=O)[O-])cc1)Nc1cccc(S(=O)(=O)NC2=NCCCCC2)c1 | -19% | 0% | 18µM* | 4% | · |
| 21 | O=C(Cc1ccccc1[N+](=O)[O-])Nc1cccc(S(=O)(=O)NC2=NCCCCC2)c1 | 11% | -3% | ? | 0% | · |
| 22 | O=C(/C=C/c1ccccc1Cl)Nc1cccc(S(=O)(=O)NC2=NCCCCC2)c1 | ? | 0% | 9.2µM* | 15% | -14% |
| 23 | CCCN1CNc2c(c(=O)[nH]c(=S)n2CCc2cc(OC)cc(OC)c2)C1 | 20% | · | -5% | · | · |
| 24 | O=C(CCN1C(=O)/C(=C/c2ccc3c(c2)OCO3)SC1=S)Nc1cccc(C(=O)O)c1 | -8% | -1% | 1% | 0% | 0% |
| 25 | O=C(CCCN1C(=O)/C(=C/c2ccc3c(c2)OCO3)SC1=S)Nc1cccc(C(=O)O)c1 | 6% | 0% | 10µM* | 0% | -31% |
| 26 | O=C1/C(=C/c2ccccc2Cl)SC(=S)N1CCCC(=O)N(CCO)c1ccccc1 | -12% | 0% | 16µM* | 4% | 21% |
| 27 | O=C(CCCN1C(=O)/C(=C/c2ccccc2Cl)SC1=S)Nc1ccccn1 | -23% | -1% | 21µM* | 1% | ? |
| 28 | Cc1oc(C)c2c(=O)cc(-c3ccc4c(c3)OCO4)cc(OC(=O)c3ccccc3Br)c12 | -21% | · | -15% | 5% | -11% |
| 29 | Cc1ccc(S(=O)(=O)NCc2ccccc2)cc1C(=O)N(C)Cc1ccccc1F | -3% | 0% | -15% | -1% | 2% |
| 30 | Cc1ccc(S(=O)(=O)NCc2ccccc2)cc1C(=O)N(C)Cc1ccc(F)cc1 | -12% | 0% | 23µM* | -1% | 12% |

Retrieved by structure from the list above (6):
| No. | Compound | A549 viability | B2AR arrestin | Nrf2 inh | Nrf2 activator | miR-21 FLuc |
| --- | --- | --- | --- | --- | --- | --- |
| 13 | Cc1ccc(CNC(=O)c2ccc3c(=O)c(O)c(-c4ccc(C)cc4)[nH]c3c2)cc1 | ? | -1% | 21µM* | 7% | ? |
| 9 | COc1ccc(NC(=O)N2CCc3c([nH]c4ccc(OC)cc34)C2c2ccc(OC)cc2)cc1 (centres undefined) | -2% | · | 133% | 3% | 17% |
| 16 | CCOc1ccc(N(C(=O)c2ccc(Cl)cc2)S(=O)(=O)c2ccc3c(c2)n(C)c(=O)n3C)cc1 | 1% | · | 18% | 0% | 5% |
| 27 | O=C(CCCN1C(=O)/C(=C/c2ccccc2Cl)SC1=S)Nc1ccccn1 | -23% | -1% | 21µM* | 1% | ? |
| 26 | O=C1/C(=C/c2ccccc2Cl)SC(=S)N1CCCC(=O)N(CCO)c1ccccc1 | -12% | 0% | 16µM* | 4% | 21% |
| 22 | O=C(/C=C/c1ccccc1Cl)Nc1cccc(S(=O)(=O)NC2=NCCCCC2)c1 | ? | 0% | 9.2µM* | 15% | -14% |

More compounds follow:
| No. | Compound | A549 viability | B2AR arrestin | Nrf2 inh | Nrf2 activator | miR-21 FLuc |
| --- | --- | --- | --- | --- | --- | --- |
| 31 | O=C(Nc1nc(-c2ccc(Cl)cc2)cs1)c1cccnc1 | -1% | 0% | ? | 0% | -7% |
| 32 | CCc1ccc(-c2csc(NC(=O)C3=NN(c4ccccc4)C(=O)CC3)n2)cc1 | -3% | 0% | 18µM* | 4% | -12% |
| 33 | CCc1ccc(-c2csc(NC(=O)c3cccnc3)n2)cc1 | -9% | 2% | 15µM* | 4% | 1% |
| 34 | COc1ccc(CNCc2c(C(=O)O)c(C)n(Cc3ccccc3C)c2C)c(OC)c1 | 6% | · | 16% | 0% | 0% |
| 35 | N#Cc1c(-n2ncnc2-c2cccc(Cl)c2)sc2c1CCCCC2 | 1% | · | ? | 0% | -26% |
| 36 | CCc1ccc(NC(=O)C2CCN(S(=O)(=O)c3cccc(-c4noc(C)n4)c3)CC2)cc1 | 2% | · | · | 6% | ? |
| 37 | CCN(Cc1ccccc1)S(=O)(=O)c1ccc(C(=O)N(CCCN(C)C)c2nc3c(C)c(C)ccc3s2)cc1 | ? | -2% | 18µM* | 1% | · |
| 38 | COc1cc2c[n+](C)c3c4ccccc4ccc3c2cc1OC | -7% | · | 16µM* | 3% | · |
| 39 | O=C(OCc1nc2ccccc2s1)c1ccc(Br)s1 | ? | 0% | · | 11µM* | -16% |
| 40 | Cc1ccc(C(=O)OCc2nc3ccccc3s2)o1 | 2% | 0% | ? | 10µM* | · |
| 41 | O=C(OCc1nc2ccccc2s1)c1cc2ccccc2oc1=O | · | 0% | · | · | -58% |
| 42 | Nc1ccc(C(=O)OCc2nc3ccccc3s2)cc1 | 0% | 0% | ? | 3% | -62% |
| 43 | O=C(Nc1cccc2cccnc12)c1ccc(Br)cc1 | -3% | · | 16% | · | · |
| 44 | CC(C)c1nn2c(=O)cc(COC(=O)c3ccc(NC(=O)C4CCCCC4)cc3)nc2s1 | -6% | · | · | 0% | 17% |
| 45 | Cc1ccc(NC(=O)CSC2=C(C#N)C(c3ccc4c(c3)OCO4)C3=C(CCCC3=O)N2)c(C)c1 (centres undefined) | · | 0% | 12µM* | 3% | 12% |
| 46 | CC(=C/C(=O)O)/C=C/c1ccco1 | 0% | ? | 4% | ? | 9% |
| 47 | CCN(C(=O)C=Cc1ccco1)c1ccccc1 | 4% | · | 3% | 14µM* | · |
| 48 | Nc1c(C(=O)Nc2ccc(Cl)c(C(F)(F)F)c2)sc2nc(-c3ccncc3)ccc12 | -4% | · | 7.3µM* | 0% | -8% |
| 49 | Cc1ccccc1NC(=O)c1sc2nc(-c3ccncc3)ccc2c1N | -8% | · | 26µM* | -1% | 27% |
| 50 | Cc1cccc(OC(=O)CSc2nnc(-c3ccc4c(c3)OCO4)o2)c1C | 8% | · | 18% | -2% | 0% |
| 51 | Nc1nc(OCC2CCCCC2)c2[nH]cnc2n1 | ? | -1% | 18µM* | 1% | -12% |
